Experimental data published in PubChem BioAssay AID862 (The Scripps Research Institute Molecular Screening Center, 2007).
This is a selection; strong and weak results do not stand in their true shares. Some tests of the compounds listed are not included; inactive here does not mean inactive elsewhere. The source made the active and inactive calls.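 Rule for the calls: active = inhibition above the mean inhibition across all screened compounds plus 3 SD (cut at about 44% in these data); inactive = the rest.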

assay: IL-6 driven STAT3 reporter inhibitors, primary screen, U3A cells, luciferase, luminescence, MLSCN library (AID 862); conditions: IL-6 STAT3-luciferase reporter, at 5.5 µM, stronger effect = higher value, host cell line lacks STAT1;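 note: 0% = DMSO only wells and 100% = 100 µM nifuroxazide control wells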

| SMILES | inhibition |
| --- | --- |
| O=C(OC1CN2CCC1CC2)C(CO)(c1ccccc1)c1ccccc1 (centres undefined) | inactive: 5.1% |
| CN(C)c1cccc(C(=O)NCC2(N(C)C)CCCCC2)c1 | inactive: 4.6% |
| COc1cccc(C(=O)NCC2(N3CCCCC3)CCCCC2)c1 | inactive: 0.4% |
| Cc1ccccc1C(=O)NCC1(N2CCCCC2)CCCCC1 | inactive: -3.7% |
| CN(C)C1CCCC1OC(=O)C(O)(c1ccccc1)c1ccccc1 (centres undefined) | inactive: 5.3% |
| CCN1CCCC(OC(=O)C2(O)c3ccccc3C=Cc3ccccc32)C1 (centres undefined) | inactive: -13% |
| C=CCN1CCN(CCOC(=O)C(O)(c2ccccc2)c2ccccc2)CC1 | inactive: -1.6% |
| O=C(NCC1(N2CCCCC2)CCCCC1)c1cc([N+](=O)[O-])ccc1Cl | inactive: 5.3% |
| CC(C)N1C(=O)CC2(CCN(CCOC(=O)C(O)(c3ccccc3)c3ccccc3)CC2)C1=O | inactive: 8.1% |
